Laboratory results as given in patent US20260022352A1, “COMPOSITIONS AND METHODS FOR PURIFYING […]” (North Carolina State University, priority 2023, published 2026).

Assays:
[1] = target: VSV-G-pseudo-typed lentiviral vector particles (vesicular stomatitis virus) (UniProt P03522); assay: ToyoPearl 750 resin (PMMA), clarified HEK293 CCF, RT 1 min
[2] = target: VSV-G-pseudo-typed lentiviral vector particles (vesicular stomatitis virus) (UniProt P03522); assay: 50 purification cycles on Poros resin with 0.5 M NaOH CIP between
[3] = target: VSV-G-pseudo-typed lentiviral vector particles (vesicular stomatitis virus) (UniProt P03522); assay: breakthrough on peptide-Poros column, clarified HEK293 CCF, RT 1 min, RT-qPCR
[4] = target: VSV-G-pseudo-typed lentiviral vector particles (vesicular stomatitis virus) (UniProt P03522); assay: ToyoPearl 650 resin (PMMA), clarified HEK293 CCF, RT 1 min
[5] = target: VSV-G-pseudo-typed lentiviral vector particles (vesicular stomatitis virus) (UniProt P03522); assay: breakthrough on peptide-Poros column, clarified HEK293 CCF, RT 2 min, RT-qPCR
[6] = target: VSV-G-pseudo-typed lentiviral vector particles (vesicular stomatitis virus) (UniProt P03522); assay: Poros resin (PS), clarified HEK293 CCF, RT 1 min
[7] = target: VSV-G-pseudo-typed lentiviral vector particles (vesicular stomatitis virus) (UniProt P03522); assay: Eshmuno 800-50 resin (PVE), clarified HEK293 CCF, RT 1 min
[8] = target: VSV-G-pseudo-typed lentiviral vector particles (vesicular stomatitis virus) (UniProt P03522); assay: Poros resin, G spacer, clarified HEK293 CCF, RT 1 min
[9] = target: VSV-G-pseudo-typed lentiviral vector particles (vesicular stomatitis virus) (UniProt P03522); assay: CaptureSelect Lenti VSVG Affinity Matrix (agarose), clarified HEK293 CCF

Question: What does the source list for GKEAAFAA (peptide)?
Answer: DBC10% (TU/mL of resin) [1]: 5e+09; DBC10% (TU per mL of resin) [2]: 2e+09; DBC10% [3]: 1.91e+10 vg/mL; DBC10% (TU/mL of resin) [4]: 4.3e+09; DBC10% [5]: 2.69e+10 vg/mL; DBC10% (TU/mL of resin) [6]: 4.5e+09; DBC10% (TU/mL of resin) [7]: 1.9e+09

Question: GKEAAFAA-G (peptide) was tested. Which DBC10% (TU per mL of resin) [8] did it give?
Answer: Its DBC10% (TU per mL of resin) is 1.8e+09.

Question: What does the source list for FEKISNAE (peptide)?
Answer: DBC10% [3]: 7.03e+09 vg/mL; DBC10% [5]: 5.84e+09 vg/mL

Question: With “Camelid Antibody (VHH) ligand of CaptureSelect™ Lenti VSVG Affinity Matrix” as the substance, how does the DBC10% (TU/mL of resin) [9] read?
Answer: The DBC10% (TU/mL of resin) was 2.3e+08.
